# Reported water solubility values for industrial, environmental and drug-like chemicals

Values as listed in the OPERA 2.9 repository of K. Mansouri.

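OPERA's authors assembled the values from existing databases and did not measure them anew. The files give a single number for a compound and property, which may rest on several reports. Method and conditions are not stated for these values. Where a salt, mixture or single isomer is drawn, the source does not say that exactly this form was tested. Some upstream entries may be estimates or bounds without being marked so.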

Solubility in water is on a log10 molar scale (set defined at 25 °C). "n/a" marks a cell with nothing listed here.

SMILES,name,water solubility (log10 mol/L)
O=C[C@H]1C[C@@H]2OC(C(Cl)(Cl)Cl)O[C@@H]2[C@H]1O (some centres not stated),n/a,-2.042
CCCCCCCCCOC(=O)c1ccc(C(=O)OCCCCCCCCC)c(C(=O)OCCCCCCCCC)c1,"Trinonyl benzene-1,2,4-tricarboxylate",-6.757
COC(=O)c1ccc(C#N)cc1[N+](=O)[O-],Methyl 4-cyano-2-nitrobenzoate,-3.076
CCOC(=O)C(=CC=Cc1ccccc1)NC=O,"Ethyl 2-formamido-5-phenylpenta-2,4-dienoate",-3.348
CC(=CC(=O)O)SC(C)=CC(=O)O,"3,5-Dimethyl-4-thia-hepta-2,5-diendioic acid",-2.306
NC(=O)Nc1ccc(F)cc1,"Urea, 1-(p-fluorophenyl)-",-1.22
CCN(CC)S(=O)(=O)c1ccc(OC)c(N=Nc2c(O)c(C(=O)Nc3cc(Cl)c(OC)cc3OC)cc3ccccc23)c1,C.I. Pigment Red 5,-7.905
COCCCNc1nc(NCCCOC)c(N=Nc2sc(C(=O)OC)c(C)c2C#N)c(C)c1C#N,n/a,-8.221
CCCCC[N+](=O)[O-],1-Nitropentane,-1.955
Nc1nc(/C(=C/CC(=O)O)C(=O)N[C@@H]2C(=O)N3C(C(=O)O)=CCS[C@H]23)cs1,Ceftibuten,-3.765
CCCN(CCC)CCc1cccc2c1CC(=O)N2,Ropinirole,-2.868
NC(=O)CC(CC(=O)O)c1ccc(Cl)cc1 (centres undefined),3-(4-Chlorophenyl)glutaramic acid,-2.286
Cc1ccc(C(=O)OC[C@@H]2O[C@H](n3cc(C)c(=O)[nH]c3=O)C[C@H]2OC(=O)c2ccc(C)cc2)cc1,n/a,-7.449
CC1=CC(C)C(C2OCC3COC(C4CCC(C)=CC4C)N32)CC1 (centres undefined),n/a,-5.918
C[C@@]12CCC(=O)C=C1CC[C@H]1[C@H]2CC[C@]2(C)[C@@H]1CC[C@]21CCC(=O)O1,"6,7-Dihydrocanrenone",-4.225
Cc1[nH]c(N)nc(=O)c1CCO,2-Amino-5-(2-hydroxyethyl)-6-methylpyrimidin-4(1H)-one,-2.03
Cc1cc(N(CCO)CCC#N)ccc1N=Nc1ccc([N+](=O)[O-])cc1,n/a,-6.722
CCCCCCCCCCCCCCCCOC(=O)/C=C/C(=O)OCCCCCCCCCCCCCCCC,"2-Butenedioic acid (2E)-, di-C16-18-alkyl esters",-7.053
O=C(O)CN[C@@H](Cc1ccc(O)cc1)C(=O)O,N-(Carboxymethyl)-L-tyrosine,-2.598
CC1(C)S[C@@H]2[C@H](NC(=O)C3(N)CCCCC3)C(=O)N2[C@H]1C(=O)O,Cyclacillin,-2.255
Nc1ncnc2c1ncn2[C@@H]1O[C@H](CO)[C@@H](O)[C@H]1O,Adenosine,-1.729
C[C@]12C[C@@H](O)[C@H]3[C@@H]([C@H]4C[C@]5(C#N)[C@@H](C(=O)CC[C@]35C)C4=O)[C@@H]1CC[C@@]21CCC(=O)O1,n/a,-4.012
CC(C)CCCCCCCCCCCCCCC(=O)OCC(C)O (centres undefined),"Isooctadecanoic acid, monoester with 1,2-propanediol",-7.234
CC1(C)S[C@@H]2[C@H](NC(=O)Cc3ccccc3)C(=O)N2[C@H]1C(=O)O,Penicillin G,-3.202
CCCOC(=O)Nc1ccccc1,Propyl N-phenylcarbamate,-2.9
CCCc1nc(C)c2c(=O)nc(-c3ccccc3OCC)[nH]n12,n/a,-4.656
O=C1CCCCCN1C(=O)NCCCCCCNC(=O)N1CCCCCC1=O,n/a,-3.906
Cc1ccc(NS(=O)(=O)c2ccc(N)cc2)nn1,4-amino-n-(6-methylpyridazin-3-yl)benzenesulfonamide,-2.637
NS(=O)(=O)c1cc2c(s1)C(=O)CCS2(=O)=O,n/a,-3.671
COc1cc(C=O)ccc1OC(=O)C(C)C,4-Formyl-2-methoxyphenyl isobutyrate,-2.589
CC(C(=O)O)C(C)(C)C(=O)O (centres undefined),Trimethyl butanedioic acid,-0.224
CCCCC(CC)COC(=O)c1ccccc1O (centres undefined),2-Ethylhexyl salicylate,-5.7
CN(C)CCOC(=O)C(c1ccccc1)C1(O)CCCC1 (centres undefined),Cyclopentolate,-2.288
CCC(=O)C(C)CC=C(C)C (centres undefined),"6-Octen-3-one, 4,7-dimethyl-",-2.701
CC1(C)O[C@@](C)(C(=O)O)CC[C@H]1C(=O)O,"(2R,5R)-2,6,6-trimethyloxane-2,5-dicarboxylic acid",-1.189
CC(C)(C)c1cc(CCC(=O)OCCNC(=O)C(=O)NCCOC(=O)CCc2cc(C(C)(C)C)c(O)c(C(C)(C)C)c2)cc(C(C)(C)C)c1O,n/a,-8.667
Clc1cc(Oc2ccc(Cl)c(Cl)c2Cl)cc(Cl)c1Cl,"2,3,3',4,4',5'-Hexachlorodiphenylether",-8.49
C=C1/C(=C\C=C2/CCC[C@]3(C)[C@@H]([C@H](C)CCCC(C)C)CC[C@@H]23)C[C@@H](O)C[C@@H]1O,Alfacalcidol,-5.391
CC1(C)c2ccccc2-c2ccc(N(c3ccccc3-c3ccccc3)c3cccc4c3-c3ccccc3C43c4ccccc4-c4ccccc43)cc21,n/a,-7.131
C=CC(C)CCCC(C)(C)OC(C)=O (centres undefined),"2,6-Dimethyloct-7-en-2-yl acetate",-4.271
CC(=O)C1CCCCC1=O (centres undefined),2-Acetyl-1-cyclohexanone,-1.369
CC1COC(C)(CCC(=O)OCCCCOC(=O)CCC2(C)OCC(C)O2)O1 (centres undefined),n/a,-1.978
N[C@@H]1CONC1=O,Cycloserine,0.934
CCCC(C)C1OCC(C)(CCC)CO1 (centres undefined),"1,3-Dioxane, 5-methyl-2-(1-methylbutyl)-5-propyl-",-4.316
O=S(=O)([O-])c1ccc(/N=N/c2ccc(O)c(/N=N/c3ccc(S(=O)(=O)[O-])c4ccccc34)c2O)c2ccccc12.[Na+].[Na+],"C.I. Acid Brown 14, disodium salt",-2.604
Cc1ccc(Cl)cc1Cl,"2,4-Dichlorotoluene",-4.056
CN(C)[C@@H]1C(O)=C(C(=O)NCN2CCCC2)C(=O)[C@@]2(O)C(O)=C3C(=O)c4c(O)cccc4[C@@](C)(O)C3C[C@@H]12 (some centres undefined),n/a,-1.42
Clc1ccc(Oc2c(Cl)ccc(Cl)c2Cl)cc1Cl,"2,3,3',4',6-Pentachlorodiphenyl ether",-7.35
CC(=O)OCC(=O)[C@H]1[C@H](C)C[C@H]2[C@@H]3C[C@H](F)C4=CC(=O)CC[C@]4(C)[C@H]3[C@@H](O)C[C@@]21C,n/a,-6.172
CCCCCCCCCCCCCCC(=O)O,Pentadecanoic acid,-4.309
CCOC(=O)c1nn(-c2ccc(OC)cc2)c2c1CCN(c1ccc(N3CCCCC3=O)cc1)C2=O,n/a,-4.628